# Wnt act = Wnt/beta-catenin pathway activation | Wnt/beta-catenin reporter cell assay, activator, plate reader | activation, % at 9.35 µM | 1.2% of 300,000 active | AID 743398; in the data active means activation above about 30%, passing the limit was not always enough; inconclusive means no clear call, values can overlap the other calls;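 further: 0% = neutral control wells and 100% = positive control wells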
# miR122 inh = blocks miR-122 activity in Huh7 sensor cells | 0.3% of 340,000 active | activation (reporter increase), % at 12.5 µM | Huh7 miR-122 Renilla luciferase sensor, 48 h; neutral wells = 0, positive control = 100;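 active means mean replicate activation score at least 90 and every replicate individually at or above 90; inconclusive means only one of the two criteria met; inactive means neither criterion met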;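 further: higher luciferase means less miR-122 activity so hits act as miR-122 inhibitors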
# PglD DTNB = blocks C. jejuni PglD acetyltransferase activity; 0.098% of 360,000 active; inhibition, % at 12.5 µM; purified PglD enzyme, DTNB colorimetric CoA detection; in the data active means inhibition above about 16%, passing the limit was not always enough; inconclusive means no clear call, values can overlap the other calls
# MITF TRPM1 HTS = MITF TRPM1 promoter activation in melanoma cells; AID 588334; SK-MEL-5 TRPM1-promoter luciferase, 24 h; % of positive control, neutral wells = 0; activation, % at 12.5 µM; 0.75% of 300,000 active;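 active means mean activation of at least 80% with every replicate also reaching 80%; inconclusive means mean reaches 80% but some replicate falls short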;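 further: 0% = neutral control wells and 100% = parthenolide positive control wells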
# Yeast UUG start-1 = modulators of yeast start codon fidelity, primary screen, whole organism, S. cerevisiae, single point, plate reader | AID 602363, 2012 | S. cerevisiae UUG-firefly luciferase reporter, luminescence/redox ratio | activity score, % at 18.7 µM | hit rate 0.13% among 350,000;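 active = replicate mean at a twofold rise or more, about +100% in these data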;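 also: firefly luciferase made from a UUG start codon reports start codon fidelity; reporter light over untreated wells divided by growth signal over untreated wells; some hits fall short of that in this replicate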
# esBAF inh = inhibitors of esBAF chromatin remodeling in mouse ES cells; reporter increase, % at 12.5 µM; 2% of 350,000 active; Bmi1-luciferase knock-in reporter, 24 h; 100% = twice the neutral-well signal; AID 602393; in the data active means activation above about 40%; inconclusive means no clear call, values can overlap the other calls;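 further: 0% = median of the plate's neutral control wells and 100% = double that signal; a rise in the Bmi1 reporter signal indicates esBAF inhibition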
# Yeast UUG start-2 = alters UUG start codon use in yeast; activation, % at 38 µM; AID 652061; shares compounds with Yeast UUG start-1; 540 tested, under 10 active; S. cerevisiae UUG-start firefly luciferase, luminescence, 4 h; 100% means double the DMSO signal;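 active means signal increase whose fitted curve reaches an absolute level of 40 at a concentration under 10 µM; inactive means activity opposite to the expected increase, or the rest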
# * marks the source's active call; other numbers are inactive results; i = inactive; u = inconclusive; x = not tested or not shown; [ ] = dose if it differs, or a comment. An excerpt weighted towards active compounds, which were near 2.8% of everything screened.
cpd	Structure	Yeast UUG start-2	Wnt act	PglD DTNB	esBAF inh
1	COc1ccc(CNC(=O)C[C@@H]2C=C[C@H](NC(=O)CN(C)C)[C@H](CO)O2)cc1	x	x	-2	0
2	C[C@H]1CN([C@@H](C)CO)S(=O)(=O)c2ccc(-c3cccc(C(=O)N(C)C)c3)cc2O[C@@H]1CN(C)C(=O)Nc1ccc(F)cc1	i	x	3	3
3	C[C@H](CO)N1C[C@H](C)[C@H](CN(C)C(=O)CN(C)C)Oc2cc(-c3ccccc3)ccc2S1(=O)=O	i	x	3	-2
4	C[C@H]1CN([C@@H](C)CO)S(=O)(=O)c2ccc(-c3cccc(C(=O)N(C)C)c3)cc2O[C@H]1CN(C)C(=O)Nc1ccc(F)cc1	x	x	0	1
5	CC(=O)N(C)C[C@@H]1Oc2cc(Br)ccc2S(=O)(=O)N([C@@H](C)CO)C[C@@H]1C	i	x	-5	0
6	CC(=O)N(C)C[C@@H]1Oc2cc(-c3cccc(C#N)c3)ccc2S(=O)(=O)N([C@H](C)CO)C[C@H]1C	i	x	0	-1
7	CC(=O)N(C)C[C@@H]1Oc2cc(-c3cccc(C#N)c3)ccc2S(=O)(=O)N([C@@H](C)CO)C[C@H]1C	x	x	0	-1
8	CC(C)NC(=O)N(C)C[C@H]1OCCCC[C@H](C)Oc2ccc(NC(=O)Cc3ccccc3)cc2C(=O)N([C@@H](C)CO)C[C@@H]1C	x	x	4	x

cpd	Yeast UUG start-1	miR122 inh	MITF TRPM1 HTS
1	-12	x	x
2	111*	29[16.7 µM]	x
3	35*	-1[16.7 µM]	x
4	0	-4[16.7 µM]	x
5	63*	12[16.7 µM]	x
6	66*	1[16.7 µM]	x
7	13	-4[16.7 µM]	x
8	x	1[16.7 µM]	x

# By substructure, the compounds so far with a halogen
cpd	Structure	Yeast UUG start-2	Wnt act	PglD DTNB	esBAF inh
2	C[C@H]1CN([C@@H](C)CO)S(=O)(=O)c2ccc(-c3cccc(C(=O)N(C)C)c3)cc2O[C@@H]1CN(C)C(=O)Nc1ccc(F)cc1	i	x	3	3
4	C[C@H]1CN([C@@H](C)CO)S(=O)(=O)c2ccc(-c3cccc(C(=O)N(C)C)c3)cc2O[C@H]1CN(C)C(=O)Nc1ccc(F)cc1	x	x	0	1
5	CC(=O)N(C)C[C@@H]1Oc2cc(Br)ccc2S(=O)(=O)N([C@@H](C)CO)C[C@@H]1C	i	x	-5	0

cpd	Yeast UUG start-1	miR122 inh	MITF TRPM1 HTS
2	111*	29[16.7 µM]	x
4	0	-4[16.7 µM]	x
5	63*	12[16.7 µM]	x

# The results go on:
cpd	Structure	Yeast UUG start-2	Wnt act	PglD DTNB	esBAF inh
9	O=C(N[C@H]1CC[C@@H](CCNS(=O)(=O)Cc2ccccc2)O[C@H]1CO)c1ccc2c(c1)OCO2	x	x	2	-5
10	COc1cccc(-c2ccc3c(c2)O[C@@H](CN(C)Cc2ccncc2)[C@@H](C)CN([C@H](C)CO)S3(=O)=O)c1	i	x	0	2
11	COc1cccc(-c2ccc3c(c2)O[C@H](CN(C)Cc2cncnc2)[C@@H](C)CN([C@@H](C)CO)S3(=O)=O)c1	x	x	2	1
12	COc1ccc(S(=O)(=O)N(C)C[C@H]2OCCCC[C@H](C)Oc3ccc(NC(=O)CCCN(C)C)cc3C(=O)N([C@@H](C)CO)C[C@H]2C)cc1	x	x	3	2
13	CCc1ccccc1Nc1nc2ccccc2[nH]1	x	-2	3	x
14	COc1ccccc1Nc1nc2ccccc2[nH]1	-2	x	0	40
15	CC1Sc2ccc(C(=O)N(CCc3ccccc3)Cc3ccccc3)cc2NC1=O (centres undefined)	18	-4	3	10
16	CO[C@H]1CN(C)C(=O)c2ccc(NC(=O)C3CC3)cc2OC[C@H](C)N(C(=O)c2ccccc2)C[C@@H]1C	x	x	0	-3

cpd	Yeast UUG start-1	miR122 inh	MITF TRPM1 HTS
9	6	x	x
10	166*	-10[16.7 µM]	x
11	-7	-6[16.7 µM]	x
12	23	11[16.7 µM]	x
13	0	-11	x
14	-20	2	56
15	103*	45	x
16	30	x	x

# Following part:
cpd	Structure	Yeast UUG start-2	Wnt act	PglD DTNB	esBAF inh
17	CCCNC(=O)N[C@H]1CC[C@H](CCn2cc(C3CC3)nn2)O[C@@H]1CO	i	x	2	-3
18	COCc1cn(CC[C@H]2CC[C@@H](NC(=O)CCN3CCCCC3)[C@H](CO)O2)nn1	x	x	6	-2
19	CCCNC(=O)N[C@@H]1CC[C@@H](CCn2cc(C3CC3)nn2)O[C@H]1CO	x	x	3	-4
20	CC(C)c1cn(CC[C@@H]2CC[C@H](N)[C@@H](CO)O2)nn1	i	x	-3	-6
21	COCc1cn(CC[C@@H]2CC[C@H](NC(=O)CCN3CCCCC3)[C@@H](CO)O2)nn1	i	x	3	-2
22	CN(C)CC(=O)N[C@H]1CC[C@H](CCn2cc(CN(C)C)nn2)O[C@H]1CO	i	x	0	-3
23	CNC[C@H]1Oc2ccc(NC(=O)NC(C)C)cc2CC(=O)N([C@@H](C)CO)C[C@@H]1C	x	x	-1	1
24	CC(=O)N(C)C[C@H]1Oc2cc(Br)ccc2S(=O)(=O)N([C@@H](C)CO)C[C@H]1C	x	x	-4	-2

cpd	Yeast UUG start-1	miR122 inh	MITF TRPM1 HTS
17	145*	x	x
18	-9	x	x
19	4	x	x
20	193*	-5[16.7 µM]	x
21	39*	x	x
22	191*	x	x
23	4	59[16.7 µM]	x
24	13	8[16.7 µM]	x

# Going on with the list.
cpd	Structure	Yeast UUG start-2	Wnt act	PglD DTNB	esBAF inh
25	O=C(Nc1ccccc1F)N[C@H]1CC[C@@H](CCNS(=O)(=O)c2ccc(Cl)cc2)O[C@H]1CO	x	x	5	9
26	Cn1nc(CC(=O)NC2CCCCCC2)c2ccccc2c1=O	11	-2	4	-17
27	Cn1nc(CC(=O)NC2CCCCC2)c2ccccc2c1=O	-4	x	x	13
28	O=C(Nc1ccc(Nc2ccccc2)cc1)c1ccco1	-14	x	-5	u
29	O=C(Nc1ccc(NC(=O)C2CC2)cc1)c1ccco1	x	4	x	37
30	CC1(C(O)(C#CC[N+]2(C)CCCCC2)c2ccccc2)CCCC1 (centres undefined)	x	1	x	3
31	CC1(C#CC[N+]2(C)CCCCC2)CCC2C(O1)c1ccccc1OC2(C)C (centres undefined)	-4	-3	1	-6
32	NC(=O)C[N+]1(CC#CC(O)(c2ccccc2)c2ccccc2)CCCC1	-4	-1	x	-8

cpd	Yeast UUG start-1	miR122 inh	MITF TRPM1 HTS
25	-2	-7[16.7 µM]	x
26	-35	-6	-19
27	x	3	-4
28	610*	-5	59
29	x	-2	77
30	x	x	-4
31	active	x	-2
32	x	-3	2

# (list continues)
cpd	Structure	Yeast UUG start-2	Wnt act	PglD DTNB	esBAF inh
33	CCC[N+]1(CC#CC(O)(c2ccccc2)C2CCCCC2)CCCCC1 (centres undefined)	x	-3	x	x
34	COc1ccc(S(=O)(=O)N[C@H]2CC[C@H](CCn3cc(-c4cccc(F)c4)nn3)O[C@@H]2CO)cc1	x	x	1	-23
35	COc1ccc(CC(=O)Nc2ccc(S(=O)(=O)N3CCCC3)cc2)cc1OC	x	-3	1	2
36	O=C(COC(=O)Cc1ccc2c(c1)OCCO2)Nc1ccc(S(=O)(=O)N2CCCC2)cc1	0	x	0	-8
37	COc1cc(CC(=O)OCC(=O)Nc2ccc(S(=O)(=O)N3CCCC3)cc2)cc(OC)c1OC	3	x	5	-6
38	O=C(COC(=O)/C=C/c1ccc2c(c1)OCO2)Nc1ccc(S(=O)(=O)N2CCCC2)cc1	x	-2	x	x
39	C[C@@H]1CN([C@@H](C)CO)C(=O)c2cc(-c3cccc(F)c3)cnc2O[C@H]1CN(C)C	x	x	1	1
40	O=C(C[C@H]1C[C@H]2c3cc(NS(=O)(=O)c4ccccc4)ccc3O[C@H]2[C@H](CO)O1)N1CCCCC1	x	x	-3	6
41	C[C@H](O)C#Cc1ccc2c(c1)O[C@@H](CN(C)C(=O)CC1CC1)[C@@H](C)CN([C@@H](C)CO)S2(=O)=O	x	x	-4	1
42	CCOc1ccc(C(=O)NCC(C)NC(=O)c2ccc(OCC)cc2)cc1 (centres undefined)	10	-1	4	-13
43	CCOc1ccc(C(=O)NCC(C)C)cc1	x	x	-1	12

cpd	Yeast UUG start-1	miR122 inh	MITF TRPM1 HTS
33	x	x	6
34	-3	x	x
35	-9	-9	-4
36	-5	-1	3
37	652*	-1	x
38	x	x	2
39	-5	15[16.7 µM]	x
40	11	3[16.7 µM]	x
41	-9	3[16.7 µM]	x
42	109*	x	x
43	1	20	x

# Screens (PubChem)
